The subject of this assay is HIF‐1α. Description: Western blot of HIF-1α after EZH2 inhibitors. The assay is classed as cell-based. Conditions: compared to the control group.

`CCN(c1cc(-c2ccc(CN3CCOCC3)cc2)cc(C(=O)NCc2c(C)cc(C)[nH]c2=O)c1C)C1CCOCC1` [EPZ6438]: the “HIF‐1α protein levels” value is given as “significantly higher levels of HIF‐1α protein”.

Values taken from PMC10870044, “The Interplay Between HIF‐1α and EZH2 in Lung Cancer and Dual‐Targeted Drug Therapy” (Advanced Science, 2023).
